{"source": "patent US20230149421A1", "about": "“MEDICAMENT FOR PREVENTING OR TREATING IRRITABLE BOWEL SYNDROME OR INFLAMMATORY BOWEL DISEASE” (priority 2020, published 2023)", "key": {"TNF": {"test_system": "TNF", "experiment": "TNF level in colonic tissue (ELISA), DNBS-induced colitis model", "type": "in vivo, Sprague-Dawley rats", "settings": "DNBS rats; test compound group, oral"}, "IL-1β": {"test_system": "IL-1β", "experiment": "IL-1β level in colonic tissue (ELISA), DNBS-induced colitis model", "type": "in vivo, Sprague-Dawley rats", "settings": "DNBS rats; test compound groups (3, 10, 30 mg/kg) oral"}}}
{"smiles": "O=C1CC(=O)N(c2ccc(NC(=O)c3ccccc3I)cc2)c2ccc3ccccc3c2N1", "note": "[Compound B48, 5-[4-(2-iodobenzoylamino)phenyl]-1H-naphtho[1,2-b][1,4]diazepine-2,4(3H,5H)-dione]", "values": [{"measurement": "TNF in colonic tissue (inflammation index)", "setting": "TNF", "value": "not affected"}, {"measurement": "IL-1β in colonic tissue (inflammation index)", "setting": "IL-1β", "value": "significantly decreased"}]}
